Here are results for one substance from US10758545B2, “Methods to treat neurological diseases” (UNIVERSITY OF SOUTHERN CALIFORNIA, priority 2015, dated 2020).

For the experiment, the system named is C9ORF72 patient iMNs. Nature of the experiment: induced motor neuron (iMN) survival assay, glutamate treatment. Type of experiment: cell-based, human. The note with it: excess glutamate (10 μM, 12 hrs); longitudinal tracking, log-rank. The protocol: For the glutamate treatment conditions, 10 μM glutamate was added to the culture medium on day 17 and removed after 12 hrs. Cells were then maintained in N3 medium with neurotrophic factors without RepSox. For the glutamate treatment conditions with glutamate receptor antagonists, cultures were co-treated with 10 μM MK801 and CNQX, and 2 μM Nimodipine during the 12 hr glutamate treatment. The antagonists were maintained for the remainder of the experiment. For the neurotrophic factor withdrawal condition, BDNF, GDNF, and CNTF were removed from the culture medium starting at day 17. Longitudinal tracking was performed by imaging neuronal cultures in a Nikon Biostation CT or Molecular Devices ImageExpress once every 24 hrs starting at day 17. Tracking of neuronal survival was performed using SVcell 2.0 (DRVision Technologies).

“Also recorded” adds a separate entry of the source.

As for “6-Amino-N-(3-(4-(4-morpholinyl)pyrido[3′2′:4,5]furo[3,2-d]pyrimidin-2-yl)phenyl)-3-pyridinecarboxamide [YM201636]”, the “survival of C9ORF72 patient iMNs” value is “significantly increased the survival; also recorded: rescued patient iMN survival”.
